Experimental data reported in PMC12527922, “Cocaine chemogenetics blunts drug-seeking by synthetic physiology” (Nature, 2025).

Chains of the proteins cited; added tags and fusions are not shown. Residues count along the entry.
UniProt P36544, 23-224 L141G/G175K/Y210F/Y217F: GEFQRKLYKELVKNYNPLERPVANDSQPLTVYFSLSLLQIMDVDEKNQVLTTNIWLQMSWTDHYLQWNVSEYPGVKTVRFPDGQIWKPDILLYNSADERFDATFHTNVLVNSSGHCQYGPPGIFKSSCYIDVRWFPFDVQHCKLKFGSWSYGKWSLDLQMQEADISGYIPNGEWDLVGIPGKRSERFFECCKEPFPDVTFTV

Assays:
[1] = biological target: coca-5HT3 (α7(L141G,G175K,Y210F,Y217F)–5HT3) (Homo sapiens, UniProt P36544, G175K/L141G/Y210F/Y217F); assay: Membrane potential assay, coca-5HT3 in HEK293; conditions: conc 333.333 uM, ED Fig 3a
coca-5HT3 = coca-5HT3 (Homo sapiens, UniProt P36544, G175K/L141G/Y210F/Y217F); assay: [^3H]ASEM displacement, membranes of HEK293 cells expressing coca-5HT3; type: binding, human α7 nAChR LBD, mouse 5HT3 IPD; conditions: Two sites - Fit Ki
Method: Cells were suspended in Tris-HCl 50 mM pH 7.4 supplemented with protease inhibitor cocktail (1:100, Sigma-Aldrich). HEK293 cells were disrupted with a 6 Polytron homogenizer (Kinematica). Homogenates were centrifuged at 48,000g (50 min, 4 °C) and washed twice in the same conditions to isolate the membrane fraction. Protein was quantified using the bicinchoninic acid method (Pierce). Membrane suspensions (50 µg of protein per ml) were incubated in 50 mM Tris-HCl (pH 7.4) containing 8 mM CaCl2, 2 nM of [^3H]ASEM (26 Ci mmol^−1, Novandi Chemistry) and increasing concentrations of the tested compounds during 2 h at room temperature as previously described. Non-specific binding was determined in the presence of 100 µM of non-radiollabeled ASEM. Free and membrane-bound radioligands were separated by rapid filtration of 500 μl aliquots in a 96-well plate harvester (Brandel) and washed with 2 ml of ice-cold Tris-HCl buffer. Microscint-20 scintillation liquid (65 μl per well, PerkinElmer) was added to the filter plates, plates were incubated overnight at room temperature and radioactivity counts were determined in the MicroBeta2 plate counter (PerkinElmer) with an efficiency of 41%. Two-site competition curves were fitted using Prism 10 (GraphPad). Ki values were calculated using the Cheng–Prusoff equation.

In the case of `CNC[C@H](O)c1ccc(O)c(O)c1` [Epinephrine], the Response [1] is reported as 0.325.
In the case of `O=S1(=O)c2cc(N3CCN4CCC3CC4)ccc2-c2cccc(F)c21` [ASEM], the Ki (coca-5HT3; MEAN of 3 experiments, read-out: KiHi MEAN) is reported as 1.5e-09 M, the Ki (coca-5HT3; MEAN of 3 experiments, read-out: KiLo MEAN) is reported as 1.17e-06 M and the logKiHi (coca-5HT3; best-fit value per replicate, high-affinity site, concentrations in log(M), HotNM 2.000, HotKdNM 0.1500) is reported as -11.33 and -11.28 and -10.47. For the same molecule, the Ki (coca-5HT3; best-fit value per replicate, high-affinity site, concentrations in log(M), read-out: KiHi) was 4.65e-12 M and 5.23e-12 M and 3.39e-11 M, the logKiLo (coca-5HT3; best-fit value per replicate, low-affinity site, concentrations in log(M), HotNM 2.000, HotKdNM 0.1500) was -6.722 and -6.488 and -5.891 and the Ki (coca-5HT3; best-fit value per replicate, low-affinity site, concentrations in log(M), read-out: KiLo) was 1.9e-07 M and 3.25e-07 M and 1.28e-06 M. It also gave a Ki (coca-5HT3; MEAN of replicates, high-affinity site, concentrations in log(M), read-out: KiHi MEAN) of 1.46e-11 M and a Ki (coca-5HT3; MEAN of replicates, low-affinity site, concentrations in log(M), read-out: KiLo MEAN) of 6e-07 M.

Where “and” joins values, the source holds several entries; their conditions need not be identical. Equal values may be shown once. Read-outs that look alike come from different tables or passages of the source.
